Assay results: patent US8969299B2, “Therapeutic agents for regulating serum phosphorus” (KAI Pharmaceuticals, Inc., priority 2011, dated 2015)

Columns and labels:
1K1C model animals = experiment: plasma PTH reduction after 30-minute IV infusion in 1K1C model animals; format: in vivo; settings: 3 mg/kg
From the text: These compounds include (i) Ac-crrrr-NH2 (SEQ ID NO:4), (ii) Ac-crrrrr-NH2 (SEQ ID NO:5), (iii) Ac-crrrrrr-NH2 (SEQ ID NO:6), and (iv) Ac-crrrrrrr-NH2 (SEQ ID NO:7). In previous studies, the compounds identified as SEQ ID NO:4, SEQ ID NO:5, SEQ ID NO:6 and SEQ ID NO:7 were each administered by a 30-minute IV infusion to 1K1C model animals and effected a reduction in plasma PTH levels as a percent of the pre-dosing (baseline) level. […] These latter two compounds produced a mean PTH reduction of ˜40% and 60% at the 24 hour time point, respectively. It should be noted that the compounds in this study were administered at the same mg/kg dose but, due to differences in molecular weight, a different number of moles of each compound was actually dosed.

human CaSR = target: T1, human CaSR (Homo sapiens, UniProt P41180); experiment: IP1 production in HEK293 cells that express the human CaSR; format: cell-based; settings: HEK 293 cells
T1 construct: expressed in transfected cells; host or cells: HEK293
T1 sequence (P41180 20-1078): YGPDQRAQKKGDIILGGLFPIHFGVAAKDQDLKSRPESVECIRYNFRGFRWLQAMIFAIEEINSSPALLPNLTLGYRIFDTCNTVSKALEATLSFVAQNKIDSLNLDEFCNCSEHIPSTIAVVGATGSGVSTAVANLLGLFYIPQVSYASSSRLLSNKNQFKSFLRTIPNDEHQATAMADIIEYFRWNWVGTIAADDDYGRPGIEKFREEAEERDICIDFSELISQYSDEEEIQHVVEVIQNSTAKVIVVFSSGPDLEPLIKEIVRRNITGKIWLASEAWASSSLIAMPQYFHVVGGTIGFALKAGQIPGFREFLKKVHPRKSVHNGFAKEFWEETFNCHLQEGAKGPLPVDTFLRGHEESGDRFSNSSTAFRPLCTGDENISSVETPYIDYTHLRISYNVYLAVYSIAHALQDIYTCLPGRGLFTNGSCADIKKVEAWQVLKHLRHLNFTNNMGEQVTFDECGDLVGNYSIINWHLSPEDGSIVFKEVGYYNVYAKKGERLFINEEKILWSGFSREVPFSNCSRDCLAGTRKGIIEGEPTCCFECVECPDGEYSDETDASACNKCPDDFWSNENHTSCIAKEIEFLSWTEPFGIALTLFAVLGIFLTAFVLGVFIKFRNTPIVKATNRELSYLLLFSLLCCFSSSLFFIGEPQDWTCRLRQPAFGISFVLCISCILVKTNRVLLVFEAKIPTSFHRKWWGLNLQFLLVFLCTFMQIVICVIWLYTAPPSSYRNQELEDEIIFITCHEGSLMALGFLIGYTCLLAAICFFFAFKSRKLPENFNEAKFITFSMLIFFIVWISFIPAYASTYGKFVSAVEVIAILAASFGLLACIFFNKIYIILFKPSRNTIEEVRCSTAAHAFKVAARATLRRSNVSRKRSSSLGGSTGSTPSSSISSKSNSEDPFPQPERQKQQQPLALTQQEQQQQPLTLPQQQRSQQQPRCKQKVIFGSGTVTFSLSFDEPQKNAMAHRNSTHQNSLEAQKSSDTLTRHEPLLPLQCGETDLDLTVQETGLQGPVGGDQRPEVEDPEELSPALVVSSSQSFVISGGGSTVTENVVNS

Compound: CC(=O)N[C@H](CS)C(=O)N[C@H](CCCNC(=N)N)C(=O)N[C@H](CCCNC(=N)N)C(=O)N[C@H](CCCNC(=N)N)C(=O)N[C@H](CCCNC(=N)N)C(N)=O [SEQ ID NO: 4, Ac-crrrr-NH2]
- effect on plasma PTH (1K1C model animals): significant drop in plasma PTH

Compound: CC(=O)N[C@H](CS)C(=O)NCC(=O)N[C@H](CCCNC(=N)N)C(=O)N[C@H](CCCNC(=N)N)C(=O)N[C@H](CCCNC(=N)N)C(=O)NCC(=O)N[C@H](CCCNC(=N)N)C(N)=O [SEQ ID NO: 42, Ac-cGrrrGr-NH2]
- decrease in potency relative to Ac-carrrar-NH2 (SEQ ID NO:26) (human CaSR): < 8 fold
